{"source": "ChEMBL document CHEMBL6177950", "about": "“Discovery of potent and selective CDK2 inhibitors with high safety and favorable bioavailability for the treatment of cancer” (Eur J Med Chem, 2025)", "key": {"[1]": {"experiment": "Selectivity index, ratio of IC50 for CDK6/Cyclin D2 (unknown origin) to IC50 for CDK2/Cyclin E1 (unknown origin)"}, "[2]": {"experiment": "Selectivity index, ratio of IC50 for CDK4/Cyclin D1 (unknown origin) to IC50 for CDK2/Cyclin E1 (unknown origin)"}, "[3]": {"experiment": "Selectivity index, ratio of IC50 for CDK1/Cyclin A2 (unknown origin) to IC50 for CDK2/Cyclin E1 (unknown origin)"}}}
{"smiles": "CCC(C)n1cc(-c2nc(NC3CCN(S(=O)(=O)C4CC4)CC3)ncc2F)cc(F)c1=O", "note": "(stereo not drawn)", "values": [{"measurement": "Ratio IC50", "setting": "[1]", "result": "> 100"}, {"measurement": "Ratio IC50", "setting": "[2]", "result": "> 100"}, {"measurement": "Ratio IC50", "setting": "[3]", "result": 15}]}
